In the experiment the target is CCKB receptor (guinea pig cerebral cortex) (Cavia porcellus, UniProt H0VZC5). The experiment is described as follows: 125I-CCK-8 receptor binding assay, CCKB. To be noted: read-out: Activity CCK-B [μM] (IC50); Table 2; guinea pig cerebral cortex membranes. The protocol:
CCKA and CCKB receptor binding assays were performed, by using guinea pig cerebral cortex (CCKB) or rat pancreas (CCKA). Male guinea pig brain tissues were prepared according to the modified method described by Saita et al, [(1994), Characterization of YM022: its CCKB/gastrin receptor binding profile and antagonism to CCK-8-induced Ca2+mobilization., Eur. J. Pharmacol.,269, 249-254]. Pancreatic membranes were prepared in a similar way but by Charpentier et al, [(1988), Cyclic cholecystokinin analogues with high selectivity for central receptors., Proc Natl Acad Sci USA, 85, 1968-1972]. The […] CCK binding assay: Tissues were homogenized in ice cold sucrose (0.32 M, 25 ml) for 15 strokes at 500 rpm and centrifuged at 13000 rpm for 10 mins. The supernatant was re-centrifuged at 13000 rpm for 20 mins. The resulting pellet was re-dispersed to the required volume of buffer at 500 rpm and stored in aliquots at […].
Binding was achieved using a radioligand ^125I-Bolton-Hunter labeled CCK, NEN at 25 pM. The samples were incubated {with membranes (0.1 mg/ml) } in 20 mM Hepes, 1 mM EGTA, 5 mM MgCl2, 150 mm NaCl, 0.25 mg/ml bacitracin at pH 6.5 for 2 hrs at RT and then […] by centrifugation at 1100 rpm for 5 minutes. The membrane pellets were washed twice with water and the bound radioactivity was measured in a Packard Cobra Auto-gamma counter (B5005). […]

Chains of the proteins cited; added tags and fusions are not shown. Residues count along the entry.
UniProt H0VZC5, 1-426: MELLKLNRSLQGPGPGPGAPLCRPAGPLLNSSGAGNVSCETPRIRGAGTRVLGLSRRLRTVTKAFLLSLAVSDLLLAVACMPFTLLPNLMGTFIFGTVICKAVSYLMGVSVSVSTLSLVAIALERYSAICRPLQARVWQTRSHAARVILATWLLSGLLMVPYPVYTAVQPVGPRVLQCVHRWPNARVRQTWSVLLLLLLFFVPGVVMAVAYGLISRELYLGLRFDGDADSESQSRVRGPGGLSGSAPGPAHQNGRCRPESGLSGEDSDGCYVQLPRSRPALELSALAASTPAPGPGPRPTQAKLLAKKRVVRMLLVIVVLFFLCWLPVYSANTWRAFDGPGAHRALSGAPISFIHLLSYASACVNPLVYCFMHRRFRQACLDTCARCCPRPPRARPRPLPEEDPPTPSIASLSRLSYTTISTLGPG

`CC(=O)OC1OC(=O)C(Cl)=C1N1CCN(Cc2ccccc2)CC1` (stereo not shown): the IC50 is more than 20 µM.

The term IC50 denotes the point on the concentration scale where inhibition reaches its midpoint.

The values above are taken from patent US20070123718A1, “Novel 4-amino-2(5H)-furanones” (Aston University, priority 2003, published 2007).
